# Test results published in US20120196933A1, “MEXILETINE PRODRUGS” (priority 2010, published 2012).
# Experiment: Systemic availability of mexiletine in the dog from mexiletine prodrugs (oral gavage)
# Type: in vivo
# Conditions: 1 mg/kg mexiletine free base, plasma mexiletine
# Description: Test substances (i.e., mexiletine, and various mexiletine amino acid prodrugs) were administered by oral gavage to groups of two or some cases five dogs. The characteristics of the test animals are set out in Table 6.
# Blood samples were taken at various times after administration and submitted to analysis for parent drug using a validated LC-MS-MS assay. Pharmacokinetic parameters derived from the plasma bioanalytical data were determined using Win Nonlin.
substance,measurement,value
Mexiletine acetyl-ornithine amide,Cmax of mexiletine,BLQ
